This note sets out measurements from US20190119377A1.

The target of the assay is CD16 on CD16-transfected NFAT-bla Jurkat cells (UniProt P08637). Description: competition flow cytometry; displacement of AF488-labelled human IgG1 (25 nM) from CD16-transfected NFAT-bla Jurkat cells. (In flow cytometry, cells or beads pass a laser one at a time.)

For orientation: Ki means a measure of affinity in units of concentration, obtained from inhibition or displacement. “Recombinant human IgG1 Fc monomer (from UniProt P0DOX5 218-449) (other; other documents disagree on this pair)” yielded a Ki of 0.24 µM.
